Test results published in patent US9670166B2, “Substituted bicyclic dihydropyrimidinones and their use as inhibitors of neutrophil elastase activity” (Boehringer Ingelheim International GmbH, priority 2013, dated 2017).

By UniProt entry, the sequences of proteins in these tests, tags left out.
UniProt P33261, whole entry: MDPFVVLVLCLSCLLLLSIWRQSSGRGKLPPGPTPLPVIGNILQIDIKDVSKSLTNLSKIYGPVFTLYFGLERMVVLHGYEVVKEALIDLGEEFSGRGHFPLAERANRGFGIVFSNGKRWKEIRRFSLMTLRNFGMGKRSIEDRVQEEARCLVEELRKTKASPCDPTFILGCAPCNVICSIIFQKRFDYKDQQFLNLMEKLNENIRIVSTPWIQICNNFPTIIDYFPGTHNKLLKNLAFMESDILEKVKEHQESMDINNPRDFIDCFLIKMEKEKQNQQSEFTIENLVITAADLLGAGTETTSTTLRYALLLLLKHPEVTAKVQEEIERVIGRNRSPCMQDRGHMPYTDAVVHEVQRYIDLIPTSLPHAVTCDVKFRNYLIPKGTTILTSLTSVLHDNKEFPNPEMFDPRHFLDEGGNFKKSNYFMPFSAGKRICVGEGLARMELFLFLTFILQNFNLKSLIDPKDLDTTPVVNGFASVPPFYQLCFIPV

Tests used:
[1] = Metabolic stability with human liver microsomes; settings: pooled human liver microsomes 1 mg/ml, test compound 1 μM, 37° C., NADPH
[2] = Metabolic stability with human hepatocytes; settings: human hepatocyte suspension, 1 μM, scaled by well stirred model
[3] = target: cytochrome P450 2C19 (Homo sapiens (Human), UniProt P33261); test: Cytochrome P450 2C19 inhibition; format: in vitro ADME; settings: read-out: CYP2C19 IC50; human liver microsomes, (S)-Mephenytoin hydroxylation

For `CC(=O)C1=C(C)N(c2cccc(C(F)(F)F)c2)C(=O)N[C@H]1C#N`, the “t1/2 INVITRO” value [1] was 1.23 h, the “CL (predicted human hepatic in vivo blood clearance)” value [2] was 10 mL/min/kg and the IC50 [3] was 7.3 µM.
